# Test results reported in ChEMBL document CHEMBL1128907, “Platelet glycoprotein IIbIIIa receptor (GPIIbIIIa) antagonists derived from amidinoindoles” (Bioorg Med Chem Lett, 1996).
# Species: Homo sapiens
# Assay: Functional inhibition of the GPIIb-IIIa receptor was reflected as its ability to antagonize ADP induced platelet aggregation in human platelet-rich plasma
# Type: organism-based
structure (smiles),measurement,value
N=C(N)NCCC[C@H](N)C(=O)NCC(=O)N[C@@H](CC(=O)O)C(=O)N[C@@H](CO)C(=O)O,IC50,> 100 µM
